In BindingDB's records for doi:10.1021/jm00139a009 (1981):

Target: T1, Dihydrofolate reductase (Rattus norvegicus, UniProt Q920D2)
T1 sequence (Q920D2 whole entry): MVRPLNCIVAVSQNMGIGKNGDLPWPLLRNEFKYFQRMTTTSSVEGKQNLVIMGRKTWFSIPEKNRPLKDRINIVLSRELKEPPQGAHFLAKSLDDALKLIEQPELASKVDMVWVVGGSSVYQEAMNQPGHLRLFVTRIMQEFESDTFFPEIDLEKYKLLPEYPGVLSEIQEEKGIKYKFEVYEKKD
Assay: Inhibitory activity against dihydrofolate reductase of rat liver

Compound | pIC50
Cc1c(NC(=O)Cc2ccc(Cl)cc2)ccc2nc(N)nc(N)c12 | 7.48
Nc1nc(N)c2cc(CNC(=O)Cc3ccc(Cl)c(Cl)c3)ccc2n1 | 5.82
Nc1nc(N)c2ccccc2n1 [quinazoline-2,4-diamine] | 4.66
Nc1nc(N)c2c(Cl)c(NC(=O)Cc3ccc(Br)cc3)ccc2n1 | 7.89
N#Cc1ccc2nc(N)nc(N)c2c1 | 4.92

pIC50: −log10 of the molar value.
